Data reported in BindingDB's records for doi:10.1038/305140a0 (College of France, 1983).

By UniProt entry, the sequences of proteins in these tests, tags left out.
UniProt P19327, whole entry: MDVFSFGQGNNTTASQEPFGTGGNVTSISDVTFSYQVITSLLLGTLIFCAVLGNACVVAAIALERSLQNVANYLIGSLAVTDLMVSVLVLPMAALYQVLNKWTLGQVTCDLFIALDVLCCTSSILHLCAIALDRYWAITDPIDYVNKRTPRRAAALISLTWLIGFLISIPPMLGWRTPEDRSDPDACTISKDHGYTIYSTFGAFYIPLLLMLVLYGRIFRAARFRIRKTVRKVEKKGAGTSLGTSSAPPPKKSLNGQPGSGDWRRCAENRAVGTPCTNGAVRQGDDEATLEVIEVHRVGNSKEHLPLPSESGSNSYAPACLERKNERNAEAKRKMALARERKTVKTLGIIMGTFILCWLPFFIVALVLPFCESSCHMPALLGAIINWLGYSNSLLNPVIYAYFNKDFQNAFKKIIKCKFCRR

Molecular target: 5-hydroxytryptamine receptor 1A (Rattus norvegicus, UniProt P19327)

SMILES	Ki
COc1ccc2[nH]cc(C3=CCNCC3)c2c1 [5-Methoxy-3-(1,2,3,6-tetrahydro-pyridin-4-yl)-1H-indole(RU-24969)]	912 nM
NCC(O)c1ccc(O)c(O)c1 (stereo not drawn) [Noradrenaline,(+)]	> 10000 nM
